According to PMC6503841 (Nature chemical biology, 2018):

Biological target: T1, AF9 YEATS (Homo sapiens, UniProt P42568)
T1 sequence (P42568 1-138): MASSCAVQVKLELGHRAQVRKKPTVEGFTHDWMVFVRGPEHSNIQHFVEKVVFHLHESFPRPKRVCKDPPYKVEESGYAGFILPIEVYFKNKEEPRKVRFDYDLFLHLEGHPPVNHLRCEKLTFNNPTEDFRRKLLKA
Assay: competitive photo-cross-linking assay
Format: binding
Settings: result in words

With “XL-07a: dipeptide with the RK signature motif, 2-furancarbonyl lysine series” the inhibitory effect was “significantly reduced inhibitory activity”.
